This passage reports Ki results from US20100215741A1, “PHARMACEUTICAL COMPOUNDS” (priority 2009, published 2010).

Chains of the proteins cited; added tags and fusions are not shown. Lines headed by an entry give the natural chain unless they say otherwise; changes in a name come on top.
UniProt P47746, whole entry: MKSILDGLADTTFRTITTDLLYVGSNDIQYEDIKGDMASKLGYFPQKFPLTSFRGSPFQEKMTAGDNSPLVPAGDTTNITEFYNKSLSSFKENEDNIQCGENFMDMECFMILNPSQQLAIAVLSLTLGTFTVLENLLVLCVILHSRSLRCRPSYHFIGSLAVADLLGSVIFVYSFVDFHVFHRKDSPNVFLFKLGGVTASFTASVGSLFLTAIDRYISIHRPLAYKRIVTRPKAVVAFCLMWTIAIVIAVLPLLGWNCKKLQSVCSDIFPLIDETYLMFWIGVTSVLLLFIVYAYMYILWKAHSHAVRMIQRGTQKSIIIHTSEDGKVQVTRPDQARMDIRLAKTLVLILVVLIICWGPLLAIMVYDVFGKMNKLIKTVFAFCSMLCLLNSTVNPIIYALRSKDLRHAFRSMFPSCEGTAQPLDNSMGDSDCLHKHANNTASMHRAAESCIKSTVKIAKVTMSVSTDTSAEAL
UniProt P47936: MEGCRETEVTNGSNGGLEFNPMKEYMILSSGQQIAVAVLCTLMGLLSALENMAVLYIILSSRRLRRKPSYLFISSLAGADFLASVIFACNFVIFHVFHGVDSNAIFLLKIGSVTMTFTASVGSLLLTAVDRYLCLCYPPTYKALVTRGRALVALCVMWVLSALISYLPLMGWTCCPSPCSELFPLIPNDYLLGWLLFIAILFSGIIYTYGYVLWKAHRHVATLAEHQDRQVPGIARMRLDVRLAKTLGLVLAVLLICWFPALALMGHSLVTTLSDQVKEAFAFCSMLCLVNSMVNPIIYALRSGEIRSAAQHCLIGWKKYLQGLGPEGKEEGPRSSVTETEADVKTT

In experiment [1] the target is T1, CB1 receptors (Mus musculus, UniProt P47746).
T1 construct: the complete brain (excluding the cerebellum) and the spleen were quickly dissected and kept in ice; from tissue; host or cells: mouse brain (excluding the cerebellum), membrane preparation
The experiment can be described thus: radioreceptor binding, displacement of [3H]-CP-55,940, CB1 (brain). Conditions: read-out: CB1 (brain) Ki; mouse brain membranes, 1 nM [3H]-CP55.940, 1 hour at 30° C. As for the experimental part:
(§1) The affinity of the compounds towards the CB1 and CB2 cannabinoidergic receptors was evaluated in vitro by radioreceptor binding studies using the following method.
(§2) The technique of the receptor binding allows to establish if, and with which affinity and specificity, a specific compound binds to a particular receptor. To evaluate the affinity of a specific compound to a particular receptor it is necessary to challenge in a particular tissue preparation wherein those specific receptors are present the compound to be tested with a radioactive labelled compound whose affinity for the same receptors is known. […] The amount of radioactivity present in the receptor-compound complex allows furthermore to stimate with great accuracy the amount of compound bound to the receptor. By said method it is therefore possible to stablish quickly the affinity of a new compound towards a specific receptor and thus to determine its pharmacological activity. […]
(§3) The thus obtained membranes (50-80 μg of proteins) were incubated in the presence of 1 nM of [^3H]-CP55.940 for 1 hour at 30° C. in a final volume of 0.5 ml of TME buffer containing […] (BSA). The non specific binding was measured in the presence of CP55.940 at a 1 μM concentration. […]
(§4) The radioactivity present in the filters was determined by a scintillator spectrophotometer (Tricarb® 2100, Packard, Meridien, USA). […]
In general terms: Displacement assays read how much labelled ligand stays bound in the presence of the test substance.

Experiment [2] addresses T2, CB2 receptors (Mus musculus, UniProt P47936).
T2 construct: the complete brain (excluding the cerebellum) and the spleen were quickly dissected and kept in ice; from tissue; host or cells: mouse spleen, membrane preparation
Description: radioreceptor binding, displacement of [3H]-CP-55,940, CB2 (spleen). The following applies: read-out: CB2 (spleen) Ki; mouse spleen membranes, 1 nM [3H]-CP55.940, 1 hour at 30° C. The method, then:
as §1, §2, §3, §4

One may read the Ki as a measure of affinity in units of concentration, obtained from inhibition or displacement.

On to SR144528 [reference compound], for which the results for the inhibition constant (Ki) in experiment [1] and in experiment [2] were 0.07 ± 0.01 µM and 0.00028 ± 4e-05 µM, respectively.
